Data taken from ChEMBL document CHEMBL4303773 (Nature, 2020).

The chains behind the UniProt entries cited, without tags or fusion partners.
UniProt Q5BJF2, whole entry: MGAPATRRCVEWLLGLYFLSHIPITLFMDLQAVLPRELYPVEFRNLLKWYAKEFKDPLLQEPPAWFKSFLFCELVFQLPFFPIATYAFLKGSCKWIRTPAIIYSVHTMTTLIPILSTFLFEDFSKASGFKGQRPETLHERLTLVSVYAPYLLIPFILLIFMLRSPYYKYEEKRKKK

Biological target: Sigma intracellular receptor 2 (Homo sapiens, UniProt Q5BJF2)

## COc1cccc2c1CCCC2CCCN1CCN(C2CCCCC2)CC1 (stereo unspecified)
  Ki: 2.51 nM
